Key:
IL-1alpha = experiment: In vitro evaluation of inhibition of IL-1 alpha production (ELISA, cell lysate); conditions: 120 ppm, human keratinocytes, 6 hours, relative to the PMA/LPS-stimulated group
Method: (§1) Human keratinocytes were seeded in 75 cm^2 flasks cultured and expanded in a humidified incubator at 37°C in the presence of 5% CO2, using specific culture medium. Upon reaching 70-80% confluence, the cells were trypsinized and seeded in 6-well plates for subsequent incubation with the test product and evaluation of the proposed parameter. The cells were incubated with 2 non-cytotoxic concentrations for the peptide (120 ppm and 60 ppm). Next, the cells were incubated under the same culture conditions cited above for 6 hours for subsequent collection of the cell lysate. Next, quantification of the pro-inflammatory mediator IL-1alpha was performed by the ELISA technique.

IL-6 = experiment: In vitro evaluation of inhibition of IL-6 production (ELISA, cell supernatant); conditions: 60 ppm, human keratinocytes, 48 hours, relative to the PMA/LPS-stimulated group
Method: as §1, with “for 48” for “for 6”, “cell supernatant.” for “cell lysate.”, “mediator IL-6” for “mediator IL-1alpha”

lysozyme release = conditions: prior art WO2008014414; cited from earlier work
EPO release = conditions: prior art WO2008014414; cited from earlier work

Molecule: CC(C)[C@H](NC(=O)[C@H](C)NC(=O)[C@H](C)NC(=O)CCC(=O)O)C(=O)N[C@@H](C)C(=O)O
- reduces IL-1α levels (IL-1alpha): 31%
- reduces IL-6 levels (IL-6): 33%

Molecule: Ac-RPGEAAVA
- inhibition in lysozyme release (lysozyme release): did not show any inhibition

Molecule: MA-RPGEAAVA
- inhibition of EPO release (EPO release): did not show any inhibition

Molecule: MA-SKTAAKGEAAAERPGEAAVA
- inhibition of EPO release (EPO release): did not show any inhibition
